The target in the test is T1, recombinant Caspase 3 (Homo sapiens, UniProt P42574).
T1 sequence (P42574 29-175 limits assumed): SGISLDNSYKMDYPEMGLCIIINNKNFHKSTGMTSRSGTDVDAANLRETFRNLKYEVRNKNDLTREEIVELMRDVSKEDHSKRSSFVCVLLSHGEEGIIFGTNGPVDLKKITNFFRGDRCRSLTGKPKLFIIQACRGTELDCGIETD
T1 sequence (P42574 176-277 limits assumed): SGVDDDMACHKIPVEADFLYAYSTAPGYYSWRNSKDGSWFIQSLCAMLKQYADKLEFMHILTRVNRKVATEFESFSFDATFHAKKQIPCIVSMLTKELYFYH
The experiment in a line: biochemical.

One compound from US20140349297A1, “FLUORESCENT DYES BASED ON ACRIDINE AND ACRIDINIUM DERIVATIVES” (Almac Sciences (Scotland) Limited, priority 2011, published 2014) can be followed below.

SMILES strings stand for the structures.

Take `CC(=O)N[C@@H](CC(=O)O)C(=O)N[C@@H](CCC(=O)O)C(=O)N[C@H](C(=O)N[C@H](C=O)CC(=O)O)C(C)C` [AcDEVD-CHO]: the IC50 (as a rule, the concentration needed to halve the response being measured) was determined as 3.3 nM.
